The values below come from US7919329B2, “Method for screening for agents that affect food intake” (Oregon Health & Science University, priority 2001, dated 2011).

Amino acid sequences for entries named in this document (tags omitted).
UniProt P42866, whole entry: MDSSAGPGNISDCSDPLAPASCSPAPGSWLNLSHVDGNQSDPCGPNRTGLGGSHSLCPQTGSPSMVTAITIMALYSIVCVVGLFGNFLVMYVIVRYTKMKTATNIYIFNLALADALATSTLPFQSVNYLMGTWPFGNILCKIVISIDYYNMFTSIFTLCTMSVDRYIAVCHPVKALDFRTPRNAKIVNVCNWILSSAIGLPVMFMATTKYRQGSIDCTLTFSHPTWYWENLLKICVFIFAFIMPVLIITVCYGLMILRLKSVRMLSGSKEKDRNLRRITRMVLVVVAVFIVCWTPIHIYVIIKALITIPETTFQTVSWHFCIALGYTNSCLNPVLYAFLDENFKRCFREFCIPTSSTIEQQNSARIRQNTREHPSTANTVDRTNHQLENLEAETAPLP

For the assay, the target named is μ opioid receptor (MOP-R) (Mus musculus, UniProt P42866). It counts as cell-based.

Take CTAP: the “current induced by Met-Enk in POMC cells” value was “completely prevented the current induced by Met-Enk”.
